# Target: Recombinant heterodimeric HCV NS3/NS4A protease (strain 1a) (Hepatitis C virus genotype 1a, UniProt P27958)
# Chains of the proteins cited; added tags and fusions are not shown. Residues count along the entry.
# UniProt P27958, 1027-1657: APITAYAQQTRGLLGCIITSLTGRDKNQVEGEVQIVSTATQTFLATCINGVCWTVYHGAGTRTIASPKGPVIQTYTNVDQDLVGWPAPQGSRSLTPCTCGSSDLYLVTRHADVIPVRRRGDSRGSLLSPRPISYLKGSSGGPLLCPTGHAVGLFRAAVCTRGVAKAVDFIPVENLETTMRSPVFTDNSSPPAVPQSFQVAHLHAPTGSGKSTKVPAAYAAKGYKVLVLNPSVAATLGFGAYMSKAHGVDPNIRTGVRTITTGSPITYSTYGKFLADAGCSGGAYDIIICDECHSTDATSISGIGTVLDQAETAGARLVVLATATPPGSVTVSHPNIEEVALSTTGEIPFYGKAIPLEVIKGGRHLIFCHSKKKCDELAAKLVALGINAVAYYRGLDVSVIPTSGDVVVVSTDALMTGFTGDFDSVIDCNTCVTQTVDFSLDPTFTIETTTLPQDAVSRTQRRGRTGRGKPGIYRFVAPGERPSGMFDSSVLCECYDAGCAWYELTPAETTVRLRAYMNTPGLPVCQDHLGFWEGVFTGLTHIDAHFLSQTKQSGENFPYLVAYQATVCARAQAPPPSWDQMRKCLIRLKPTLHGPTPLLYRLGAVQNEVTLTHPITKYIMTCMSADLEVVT
# UniProt P27958, 1658-1711: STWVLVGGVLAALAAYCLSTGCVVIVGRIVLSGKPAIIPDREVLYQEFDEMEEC
# Experiment: Spectrophotometric assay for HCV protease inhibitory activity
# Type: biochemical
# Conditions: Table 1, range
row,SMILES,Ki [nM]
1,C=CCNC(=O)C(=O)C(CCCC)NC(=O)[C@@H]1[C@@H]2[C@H](CN1C(=O)[C@@H](NC(=O)N[C@H](CN(C)S(=O)(=O)N(C)C1CC1)C(C)(C)C)C(C)(C)C)C2(C)C (stereo partly drawn) [Compound 10096],≤ 75
2,C=CCNC(=O)C(=O)C(CCC)NC(=O)[C@@H]1[C@@H]2[C@H](CN1C(=O)[C@@H](NC(=O)N[C@H](CN(C)S(=O)(=O)NCCCCl)C(C)(C)C)C(C)(C)C)C2(C)C (stereo partly drawn) [Compound 10023],≤ 75
3,C=CCNC(=O)C(=O)C(CCCC)NC(=O)[C@@H]1[C@@H]2[C@H](CN1C(=O)[C@@H](NC(=O)N[C@H](CN(C)S(=O)(=O)N1CCCC1)C(C)(C)C)C(C)(C)C)C2(C)C (stereo partly drawn) [Compound 10099],≤ 75
4,CN(C[C@@H](NC(=O)N[C@H](C(=O)N1C[C@H]2[C@@H]([C@H]1C(=O)NC(CC1CC1)C(=O)C(N)=O)C2(C)C)C(C)(C)C)C(C)(C)C)S(=O)(=O)N1CCOCC1 (stereo partly drawn) [Compound 10080],≤ 75
5,CN(C[C@@H](NC(=O)N[C@H](C(=O)N1C[C@H]2[C@@H]([C@H]1C(=O)NC(CC1CC1)C(=O)C(N)=O)C2(C)C)C(C)(C)C)C(C)(C)C)S(=O)(=O)N1CCC1 (stereo partly drawn) [Compound 10049],≤ 75

# Same assay, conditions: Table 2, range
row,SMILES,Ki [nM]
1,C=CCNC(=O)C(=O)C(CC1CC1)NC(=O)[C@@H]1[C@@H]2[C@H](CN1C(=O)[C@@H](NC(=O)N[C@H](CN(C)S(=O)(=O)CC)C(C)(C)C)C(C)(C)C)C2(C)C (stereo partly drawn) [Compound 11114],≤ 75
2,C#CCCC(NC(=O)[C@@H]1C[C@@H](OC(C)(C)C)CN1C(=O)[C@@H](NC(=O)N[C@H](CN(C)S(C)(=O)=O)C(C)(C)C)C1CCCCC1)C(=O)C(=O)NCC=C (stereo partly drawn) [Compound 11192],≤ 75
3,C=CCNC(=O)C(=O)C(CCCC)NC(=O)[C@@H]1[C@@H]2[C@H](CN1C(=O)[C@@H](NC(=O)N[C@H](CN(C)S(=O)(=O)c1ccccc1C)C(C)(C)C)C(C)(C)C)C2(C)C (stereo partly drawn) [Compound 11347],≤ 75
4,C=CCNC(=O)C(=O)C(CCCC)NC(=O)[C@@H]1[C@@H]2[C@H](CN1C(=O)[C@@H](NC(=O)NC1(CN(C)S(=O)(=O)c3ccccc3)CCCCC1)C(C)(C)C)C2(C)C (stereo partly drawn) [Compound 11015],≤ 75
5,CCCCC(NC(=O)[C@@H]1[C@@H]2[C@H](CN1C(=O)[C@@H](NC(=O)N[C@H](CN(C)S(C)(=O)=O)C(C)(C)C)C1Cc3ccccc3C1)C2(C)C)C(=O)C(=O)NCCC (stereo partly drawn) [Compound 11271],≤ 75
6,C=CCNC(=O)C(=O)C(CCC)NC(=O)[C@@H]1[C@@H]2[C@H](CN1C(=O)[C@@H](NC(=O)N[C@H](CN(C)S(C)(=O)=O)C(C)C)C(C)(C)C)C2(C)C (stereo partly drawn) [Compound 11052],≤ 75
7,C#CCCC(NC(=O)[C@@H]1[C@@H]2[C@H](CN1C(=O)[C@@H](NC(=O)N[C@H](CN(C)S(=O)(=O)c1sc(C)nc1C)C(C)(C)C)C(C)(C)C)C2(C)C)C(=O)C(N)=O (stereo partly drawn) [Compound 11208],≤ 75
8,CN(CC1(NC(=O)N[C@H](C(=O)N2C[C@H]3[C@@H]([C@H]2C(=O)NC(CC2CC2)C(=O)C(N)=O)C3(C)C)C(C)(C)C)CCCCC1)S(C)(=O)=O (stereo partly drawn) [Compound 11026],≤ 75
9,C=CCNC(=O)C(=O)C(CC1CC1)NC(=O)[C@@H]1[C@@H]2[C@H](CN1C(=O)[C@@H](NC(=O)N[C@H](CN(C)S(=O)(=O)c1cc(F)ccc1C)C(C)(C)C)C(C)(C)C)C2(C)C (stereo partly drawn) [Compound 11324],≤ 75
10,C=CCNC(=O)C(=O)C(CC1CC1)NC(=O)[C@@H]1[C@@H]2[C@H](CN1C(=O)[C@@H](NC(=O)N[C@H](CN(C(C)C)S(C)(=O)=O)C(C)(C)C)C(C)(C)C)C2(C)C (stereo partly drawn) [Compound 11181],≤ 75
11,C=CCNC(=O)C(=O)C(CCC)NC(=O)[C@@H]1[C@@H]2[C@H](CN1C(=O)[C@@H](NC(=O)N[C@H](CN(C)S(C)(=O)=O)C(C)(C)C)C1(C)CCCCC1)C2(C)C (stereo partly drawn) [Compound 11254],≤ 75
12,C=CCNC(=O)C(=O)C(CCCC)NC(=O)[C@@H]1[C@@H]2[C@H](CN1C(=O)[C@@H](NC(=O)N[C@H](CN(C)S(C)(=O)=O)C(C)(C)C)C1CCCCC1)C2(C)C (stereo partly drawn) [Compound 11078],≤ 75
13,C=CCNC(=O)C(=O)C(CCC)NC(=O)[C@@H]1[C@@H]2[C@H](CN1C(=O)[C@@H](NC(=O)N[C@H](CN(C)S(=O)(=O)c1ccccc1)C(C)(C)C)C(C)(C)C)C2(C)C (stereo partly drawn) [Compound 11074],≤ 75
14,C#CCCC(NC(=O)[C@@H]1[C@@H]2[C@H](CN1C(=O)[C@@H](NC(=O)N[C@H](CN(C)S(C)(=O)=O)C(C)(C)C)C1(C)CCCCC1)C2(C)C)C(=O)C(=O)NCCC (stereo partly drawn) [Compound 11198],≤ 75
15,CN(CC1(NC(=O)N[C@H](C(=O)N2C[C@H]3[C@@H]([C@H]2C(=O)NC(CC2CCC2)C(=O)C(N)=O)C3(C)C)C(C)(C)C)CCCCC1)S(=O)(=O)c1ccccc1 (stereo partly drawn) [Compound 11007],≤ 75
16,CN(C[C@@H](NC(=O)N[C@H](C(=O)N1C[C@H]2[C@@H]([C@H]1C(=O)NC(CC1CC1)C(=O)C(N)=O)C2(C)C)C(C)(C)C)C(C)(C)C)S(=O)(=O)C(C)(C)C (stereo partly drawn) [Compound 11004],≤ 75
17,C=CCNC(=O)C(=O)C(CC1CC1)NC(=O)[C@@H]1[C@@H]2[C@H](CN1C(=O)[C@@H](NC(=O)NC1(CN(C)S(C)(=O)=O)CCCCC1)C(C)(C)C)C2(C)C (stereo partly drawn) [Compound 11025],≤ 75
18,C#CCCC(NC(=O)[C@@H]1[C@@H]2[C@H](CN1C(=O)[C@@H](NC(=O)N[C@H](CN(C)S(=O)(=O)c1cccs1)C(C)(C)C)C(C)(C)C)C2(C)C)C(=O)C(=O)NCCC (stereo partly drawn) [Compound 11144],≤ 75
19,C=CCNC(=O)C(=O)C(CCCC)NC(=O)[C@@H]1[C@@H]2[C@H](CN1C(=O)[C@@H](NC(=O)N[C@H](CN(CC1CCCCC1)S(C)(=O)=O)C(C)(C)C)C(C)(C)C)C2(C)C (stereo partly drawn) [Compound 11169],≤ 75
20,C=CCNC(=O)C(=O)C(CCCC)NC(=O)[C@@H]1[C@@H]2[C@H](CN1C(=O)[C@@H](NC(=O)N[C@H](CN(C)S(=O)(=O)c1ccc(F)cc1F)C(C)(C)C)C(C)(C)C)C2(C)C (stereo partly drawn) [Compound 11353],≤ 75
21,CCS(=O)(=O)N(C)C[C@@H](NC(=O)N[C@H](C(=O)N1C[C@H]2[C@@H]([C@H]1C(=O)NC(CC1CCC1)C(=O)C(N)=O)C2(C)C)C1Cc2ccccc2C1)C(C)(C)C (stereo partly drawn) [Compound 11289],≤ 75
22,C=CCNC(=O)C(=O)C(CC1CC1)NC(=O)[C@@H]1[C@@H]2[C@H](CN1C(=O)[C@@H](NC(=O)N[C@H](CN(C)S(=O)(=O)c1ccccc1)C(C)C)C(C)(C)C)C2(C)C (stereo partly drawn) [Compound 11018],≤ 75
23,C=CCNC(=O)C(=O)C(CCCC)NC(=O)[C@@H]1[C@@H]2[C@H](CN1C(=O)[C@@H](NC(=O)NC1(CN(C)S(C)(=O)=O)CCCCC1)C(C)(C)C)C2(C)C (stereo partly drawn) [Compound 11060],≤ 75
24,CCCCC(NC(=O)[C@@H]1[C@@H]2[C@H](CN1C(=O)[C@@H](NC(=O)N[C@H](CN(C)S(C)(=O)=O)C(C)(C)C)C1(C)CCCCC1)C2(C)C)C(=O)C(=O)NC (stereo partly drawn) [Compound 11200],≤ 75
25,CN(C[C@@H](NC(=O)N[C@H](C(=O)N1C[C@H]2[C@@H]([C@H]1C(=O)NC(CC1CCC1)C(=O)C(N)=O)C2(C)C)C(C)(C)C)C1CCCCC1)S(=O)(=O)c1cccs1 (stereo partly drawn) [Compound 11161],≤ 75
26,C=CCNC(=O)C(=O)C(CCCC)NC(=O)[C@@H]1[C@@H]2[C@H](CN1C(=O)[C@@H](NC(=O)N[C@H](CN(C)S(=O)(=O)c1cc(Cl)ccc1OC)C(C)(C)C)C(C)(C)C)C2(C)C (stereo partly drawn) [Compound 11337],≤ 75
27,C=CCNC(=O)C(=O)C(CC1CC1)NC(=O)[C@@H]1[C@@H]2[C@H](CN1C(=O)[C@@H](NC(=O)N[C@H](CN(C)S(=O)(=O)c1cccs1)C(C)(C)C)C1CCCC1)C2(C)C (stereo partly drawn) [Compound 11224],75 to 250

# Same assay, conditions: Table 3, range
row,SMILES,Ki [nM]
1,CCCC(NC(=O)[C@@H]1[C@@H]2[C@H](CN1C(=O)[C@@H](NC(=O)N[C@H](CNS(C)(=O)=O)[C@@H](C)CC)C(C)(C)C)C2(C)C)C(=O)C(=O)NCC (stereo partly drawn) [Compound 12025],> 250
2,CC(C)[C@@H](CNS(=O)(=O)C1CC1)NC(=O)N[C@H](C(=O)N1C[C@H]2[C@@H]([C@H]1C(=O)NC(CC1CC1)C(=O)C(N)=O)C2(C)C)C(C)(C)C (stereo partly drawn) [Compound 12012],≤ 75
3,C=CCNC(=O)C(=O)C(CC1CC1)NC(=O)[C@@H]1[C@@H]2[C@H](CN1C(=O)[C@@H](NC(=O)N[C@H](CNS(=O)(=O)c1cccs1)C(C)C)C(C)(C)C)C2(C)C (stereo partly drawn) [Compound 12016],75 to 250

# Same assay, conditions: Table 4, range
row,SMILES,Ki [nM]
1,C=CCNC(=O)C(=O)C(CCC)NC(=O)[C@@H]1[C@@H]2[C@H](CN1C(=O)[C@@H](NC(=O)N[C@H](CN(C)C(=O)C(F)(F)F)C(C)(C)C)C(C)(C)C)C2(C)C (stereo partly drawn) [Compound 13024],≤ 75
2,CN(C[C@@H](NC(=O)N[C@H](C(=O)N1C[C@H]2[C@@H]([C@H]1C(=O)NC(CC1CCC1)C(=O)C(N)=O)C2(C)C)C(C)(C)C)C(C)(C)C)C(=O)C1CC1 (stereo partly drawn) [Compound 13013],≤ 75
3,C#CCCC(NC(=O)[C@@H]1[C@@H]2[C@H](CN1C(=O)[C@@H](NC(=O)N[C@H](CN(C)C(=O)C(F)(F)F)C(C)(C)C)C1Cc3ccccc3C1)C2(C)C)C(=O)C(=O)NCC=C (stereo partly drawn) [Compound 13029],≤ 75

# Same assay, conditions: Table 5, range
row,SMILES,Ki [nM]
1,COC(=O)NC[C@@H](NC(=O)N[C@H](C(=O)N1C[C@H]2[C@@H]([C@H]1C(=O)NC(CC1CC1)C(=O)C(N)=O)C2(C)C)C(C)(C)C)C(C)C (stereo partly drawn) [Compound 14019],≤ 75
2,C=CCNC(=O)C(=O)C(CCCC)NC(=O)[C@@H]1[C@@H]2[C@H](CN1C(=O)[C@@H](NC(=O)N[C@H](CN(C)C(=O)OC(C)(C)C)C1CCCCC1)C1CCCCC1)C2(C)C (stereo partly drawn) [Compound 14054],> 250

# Same assay, conditions: Table 5A, range
row,SMILES,Ki [nM]
1,CCS(=O)(=O)N(C)C[C@@H](NC(=O)N[C@H](C(=O)N1C[C@H]2[C@@H]([C@H]1C(=O)NC(CCC1CC1)C(=O)C(=O)NC1CC1)C2(C)C)C1Cc2ccccc2C1)C(C)(C)C (stereo partly drawn) [Compound 11421],≤ 75
2,C=CCNC(=O)C(=O)C(CC1CC1)NC(=O)[C@@H]1[C@@H]2[C@H](CN1C(=O)[C@@H](NC(=O)N[C@H](CN(C)S(=O)(=O)c1cccnc1)C(C)(C)C)C1(C)CCCCC1)C2(C)C (stereo partly drawn) [Compound 11409],≤ 75

# Same assay, conditions: Table 6
row,SMILES,Ki [nM]
1,C=CCNC(=O)C(=O)C(CCC(F)(F)F)NC(=O)[C@@H]1[C@@H]2[C@H](CN1C(=O)[C@@H](NC(=O)N[C@H](CN(C)S(C)(=O)=O)C(C)(C)C)C(C)(C)C)C2(C)C (stereo partly drawn) [drawing 55],9
2,CCS(=O)(=O)N(C)C[C@@H](NC(=O)N[C@H](C(=O)N1C[C@H]2[C@@H]([C@H]1C(=O)NC(CCC1CC1)C(=O)C(=O)NC1CC1)C2(C)C)C1Cc2ccccc2C1)C(C)(C)C (stereo partly drawn) [Compound 11421],7
3,CCN(C[C@@H](NC(=O)N[C@H](C(=O)N1C[C@H]2[C@@H]([C@H]1C(=O)NC(CC1CCC1)C(=O)C(N)=O)C2(C)C)C(C)(C)C)C(C)(C)C)S(=O)(=O)c1cccs1 (stereo partly drawn) [drawing 60],9

# Source: patent US7759499B2, “Compounds as inhibitors of hepatitis C virus NS3 serine protease” (Schering Corporation, priority 2004, dated 2010)
